Reference: ChEMBL document CHEMBL4402545, “Subtype Selective γ-Aminobutyric Acid Type A Receptor (GABAAR) Modulators Acting at the Benzodiazepine Binding Site: An Update” (J Med Chem, 2020)

What was measured:
[1] = molecular target: T1, GABA-A receptor; alpha-5/beta-3/gamma-2 (Homo sapiens, UniProt P18507+P28472+P31644); assay: Displacement of [3H]-flunitrazepam from human GABAA alpha5beta3gamma2 expressed in HEK293T cells by liquid scintillation counting method; assay type: cell-based
T1 sequence (P18507 whole entry): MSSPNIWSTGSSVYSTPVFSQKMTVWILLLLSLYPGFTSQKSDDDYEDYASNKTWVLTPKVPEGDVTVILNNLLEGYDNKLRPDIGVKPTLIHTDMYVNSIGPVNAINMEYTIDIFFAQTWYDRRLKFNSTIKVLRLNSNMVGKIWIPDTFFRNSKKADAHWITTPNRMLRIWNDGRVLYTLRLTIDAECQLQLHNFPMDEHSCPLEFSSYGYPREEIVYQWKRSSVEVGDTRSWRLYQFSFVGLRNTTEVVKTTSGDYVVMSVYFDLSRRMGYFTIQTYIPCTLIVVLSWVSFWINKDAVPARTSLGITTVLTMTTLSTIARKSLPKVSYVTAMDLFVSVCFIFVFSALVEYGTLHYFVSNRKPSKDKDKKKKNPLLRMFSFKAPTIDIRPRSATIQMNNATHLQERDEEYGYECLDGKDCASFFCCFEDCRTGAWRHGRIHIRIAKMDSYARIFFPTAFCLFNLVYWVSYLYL
T1 sequence (P28472 whole entry): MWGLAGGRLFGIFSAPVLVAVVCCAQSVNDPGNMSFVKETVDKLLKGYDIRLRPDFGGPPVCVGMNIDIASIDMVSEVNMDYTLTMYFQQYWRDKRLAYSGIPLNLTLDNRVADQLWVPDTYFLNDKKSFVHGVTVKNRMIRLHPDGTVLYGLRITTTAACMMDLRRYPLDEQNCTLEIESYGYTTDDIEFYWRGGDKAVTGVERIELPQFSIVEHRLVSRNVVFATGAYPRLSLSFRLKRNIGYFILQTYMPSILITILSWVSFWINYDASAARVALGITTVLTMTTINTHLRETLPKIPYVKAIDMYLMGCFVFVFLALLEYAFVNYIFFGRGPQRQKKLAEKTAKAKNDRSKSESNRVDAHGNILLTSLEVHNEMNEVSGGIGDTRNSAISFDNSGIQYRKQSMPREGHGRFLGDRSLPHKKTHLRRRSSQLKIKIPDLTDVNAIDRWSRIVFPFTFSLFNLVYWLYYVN
T1 sequence (P31644 whole entry): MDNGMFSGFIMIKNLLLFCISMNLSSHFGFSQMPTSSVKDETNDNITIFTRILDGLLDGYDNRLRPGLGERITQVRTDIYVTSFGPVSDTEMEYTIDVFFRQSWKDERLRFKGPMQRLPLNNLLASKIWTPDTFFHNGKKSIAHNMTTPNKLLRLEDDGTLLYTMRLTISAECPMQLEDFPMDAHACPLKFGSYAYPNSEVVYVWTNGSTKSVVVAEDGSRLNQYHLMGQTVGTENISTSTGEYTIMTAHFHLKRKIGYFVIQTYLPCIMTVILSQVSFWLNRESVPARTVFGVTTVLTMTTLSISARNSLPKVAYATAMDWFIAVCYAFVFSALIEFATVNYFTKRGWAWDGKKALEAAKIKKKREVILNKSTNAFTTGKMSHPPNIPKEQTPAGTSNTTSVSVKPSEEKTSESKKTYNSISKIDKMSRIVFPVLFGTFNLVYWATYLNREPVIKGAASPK

[2] = molecular target: T2, GABA-A receptor; alpha-3/beta-3/gamma-2 (Homo sapiens, UniProt P18507+P28472+P34903); assay: Displacement of [3H]-flunitrazepam from human GABAA alpha3beta3gamma2 expressed in HEK293T cells by liquid scintillation counting method; assay type: cell-based
T2 sequence (P18507 whole entry): T1 sequence (P18507 whole entry)
T2 sequence (P28472 whole entry): T1 sequence (P28472 whole entry)
T2 sequence (P34903 whole entry): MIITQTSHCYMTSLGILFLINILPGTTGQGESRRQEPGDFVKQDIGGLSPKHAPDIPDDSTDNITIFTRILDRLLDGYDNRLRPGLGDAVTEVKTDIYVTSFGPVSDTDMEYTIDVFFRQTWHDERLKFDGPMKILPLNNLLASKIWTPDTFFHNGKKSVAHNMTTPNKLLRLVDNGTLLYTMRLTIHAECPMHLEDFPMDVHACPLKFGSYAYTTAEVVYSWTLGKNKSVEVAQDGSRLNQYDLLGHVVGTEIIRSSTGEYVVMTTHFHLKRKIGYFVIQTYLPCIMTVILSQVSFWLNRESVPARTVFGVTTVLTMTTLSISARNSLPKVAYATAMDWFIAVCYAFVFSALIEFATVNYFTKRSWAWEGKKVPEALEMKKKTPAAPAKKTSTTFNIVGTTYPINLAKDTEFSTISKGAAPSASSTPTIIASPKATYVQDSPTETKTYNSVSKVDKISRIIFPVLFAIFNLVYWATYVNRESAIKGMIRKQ

[3] = molecular target: T3, GABA-A receptor; alpha-1/beta-3/gamma-2 (Homo sapiens, UniProt P14867+P18507+P28472); assay: Displacement of [3H]-flunitrazepam from human GABAA alpha1beta3gamma2 expressed in HEK293T cells by liquid scintillation counting method; assay type: cell-based
T3 sequence (P14867 whole entry): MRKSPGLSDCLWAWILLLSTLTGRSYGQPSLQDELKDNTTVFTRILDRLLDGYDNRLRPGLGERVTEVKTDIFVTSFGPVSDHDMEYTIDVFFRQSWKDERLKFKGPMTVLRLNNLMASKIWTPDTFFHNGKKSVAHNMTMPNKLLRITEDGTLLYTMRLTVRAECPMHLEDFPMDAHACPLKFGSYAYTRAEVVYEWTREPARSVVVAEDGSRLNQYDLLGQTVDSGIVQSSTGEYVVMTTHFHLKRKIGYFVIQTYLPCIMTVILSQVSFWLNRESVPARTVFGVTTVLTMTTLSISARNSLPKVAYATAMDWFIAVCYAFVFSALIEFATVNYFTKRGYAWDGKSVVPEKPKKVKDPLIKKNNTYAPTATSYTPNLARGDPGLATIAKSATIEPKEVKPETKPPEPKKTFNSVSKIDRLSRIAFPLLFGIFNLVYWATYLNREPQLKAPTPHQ
T3 sequence (P18507 whole entry): T1 sequence (P18507 whole entry)
T3 sequence (P28472 whole entry): T1 sequence (P28472 whole entry)

[4] = molecular target: T4, Gamma-aminobutyric acid receptor subunit alpha-5 (Homo sapiens) (UniProt P31644); assay: Binding affinity to GABA-A alpha5 (unknown origin) assessed as reduction in DMCM induced current relative to control
T4 sequence (whole entry): T1 sequence (P31644 whole entry)

[5] = molecular target: T4, Gamma-aminobutyric acid receptor subunit alpha-5 (Homo sapiens); assay: Binding affinity to GABA-A alpha5 (unknown origin) assessed as reduction in DMCM induced current relative to DMCM
[6] = molecular target: T5, Gamma-aminobutyric acid receptor subunit alpha-2 (Homo sapiens) (UniProt P47869); assay: Binding affinity to GABA-A alpha2 (unknown origin) assessed as reduction in DMCM induced current relative to DMCM
T5 sequence (whole entry): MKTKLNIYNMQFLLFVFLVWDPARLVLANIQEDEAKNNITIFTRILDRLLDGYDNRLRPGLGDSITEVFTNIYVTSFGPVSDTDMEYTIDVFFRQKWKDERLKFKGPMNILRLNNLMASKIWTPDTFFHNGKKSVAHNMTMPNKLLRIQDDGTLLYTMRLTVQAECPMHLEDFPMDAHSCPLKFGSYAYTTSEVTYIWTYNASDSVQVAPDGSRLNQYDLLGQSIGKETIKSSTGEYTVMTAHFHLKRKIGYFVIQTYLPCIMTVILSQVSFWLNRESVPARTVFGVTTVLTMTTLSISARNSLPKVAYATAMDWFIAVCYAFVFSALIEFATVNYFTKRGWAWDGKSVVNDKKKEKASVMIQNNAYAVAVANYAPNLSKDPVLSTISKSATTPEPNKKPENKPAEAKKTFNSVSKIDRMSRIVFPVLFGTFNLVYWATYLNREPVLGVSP

[7] = molecular target: T6, Gamma-aminobutyric acid receptor subunit alpha-1 (Homo sapiens) (UniProt P14867); assay: Negative allosteric modulation of GABA-A alpha1 (unknown origin) assessed as reduction in DMCM induced current relative to DMCM
T6 sequence (whole entry): T3 sequence (P14867 whole entry)

[8] = molecular target: T7, Gamma-aminobutyric acid receptor subunit alpha-3 (Homo sapiens) (UniProt P34903); assay: Binding affinity to GABA-A alpha3 (unknown origin) assessed as reduction in DMCM induced current relative to DMCM
T7 sequence (whole entry): T2 sequence (P34903 whole entry)

## C#Cc1ccc2c(c1)C(c1ccccc1F)=N[C@@H](C)c1c(C(=O)OCC)ncn1-2
[1]
  Ki: 19 nM
[2]
  Ki: 292 nM
[3]
  Ki: 468 nM

## Cc1c(F)c(Nc2ccc(-c3cn(C)cn3)cn2)cc2c1ncn2CC1CC1
[4]
  Efficacy: -44%

## Cc1cc(-c2nncc3c(C(C)(C)C)c(OCc4ncnn4C)nn23)no1
[5]
  Efficacy: -0.55
[6]
  Efficacy: 0.06
[7]
  Efficacy: -0.16
[8]
  Efficacy: -0.09
